Laboratory results from ChEMBL document CHEMBL4257577, “Pyridinium Oximes with Ortho-Positioned Chlorine Moiety Exhibit Improved Physicochemical Properties and Efficient Reactivation of Human Acetylcholinesterase Inhibited by Several Nerve Agents” (2018).

The chains behind the UniProt entries cited, without tags or fusion partners. Where a name states a change or a piece, a line headed by the entry shows the natural chain unless it says otherwise.
UniProt P22303: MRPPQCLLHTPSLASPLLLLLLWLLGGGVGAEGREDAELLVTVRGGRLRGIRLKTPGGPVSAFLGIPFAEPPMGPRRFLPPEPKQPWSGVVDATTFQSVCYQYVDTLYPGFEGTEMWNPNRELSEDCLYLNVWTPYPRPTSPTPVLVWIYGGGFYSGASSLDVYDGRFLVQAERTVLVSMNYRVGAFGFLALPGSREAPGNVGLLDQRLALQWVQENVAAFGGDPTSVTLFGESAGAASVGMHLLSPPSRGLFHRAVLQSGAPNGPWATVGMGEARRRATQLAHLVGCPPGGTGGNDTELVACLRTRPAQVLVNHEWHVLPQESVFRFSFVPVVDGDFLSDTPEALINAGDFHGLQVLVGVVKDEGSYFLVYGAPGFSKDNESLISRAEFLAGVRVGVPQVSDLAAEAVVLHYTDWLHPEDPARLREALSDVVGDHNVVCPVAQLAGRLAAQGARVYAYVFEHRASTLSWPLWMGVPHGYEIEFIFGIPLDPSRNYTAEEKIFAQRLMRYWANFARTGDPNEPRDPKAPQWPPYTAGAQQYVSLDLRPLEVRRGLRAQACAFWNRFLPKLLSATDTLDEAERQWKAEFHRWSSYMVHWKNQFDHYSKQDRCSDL
UniProt P06276, whole entry, looked up: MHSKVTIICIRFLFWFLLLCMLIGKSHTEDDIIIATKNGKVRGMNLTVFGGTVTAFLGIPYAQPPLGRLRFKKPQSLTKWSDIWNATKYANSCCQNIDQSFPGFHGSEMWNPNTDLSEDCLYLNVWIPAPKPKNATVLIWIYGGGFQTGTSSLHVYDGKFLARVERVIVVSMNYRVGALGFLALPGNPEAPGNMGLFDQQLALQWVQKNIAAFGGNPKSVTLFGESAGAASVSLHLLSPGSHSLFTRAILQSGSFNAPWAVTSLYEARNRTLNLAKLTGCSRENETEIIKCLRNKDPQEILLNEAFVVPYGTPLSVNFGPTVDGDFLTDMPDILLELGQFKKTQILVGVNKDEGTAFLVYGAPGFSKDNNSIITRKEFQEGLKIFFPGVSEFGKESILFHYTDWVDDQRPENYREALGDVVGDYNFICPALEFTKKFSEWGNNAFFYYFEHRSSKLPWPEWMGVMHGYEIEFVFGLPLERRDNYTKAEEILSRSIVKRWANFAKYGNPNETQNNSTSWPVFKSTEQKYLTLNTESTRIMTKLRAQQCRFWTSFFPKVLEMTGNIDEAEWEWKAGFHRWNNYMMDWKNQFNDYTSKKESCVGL

molecular target: Acetylcholinesterase (Homo sapiens) (UniProt P22303); assay: Reactivation of tabun-inhibited human recombinant AChE using acetylthiocholine iodide as substrate by Ellman spectrophotometric method relative to control

Row | SMILES | %max [%]
1 | NC(=O)c1cc[n+](CCCC[n+]2ccc(/C=N/O)c(Cl)c2)cc1 | 80
2 | NC(=O)c1cc[n+](CCCC[n+]2cc(Cl)c(/C=N/O)c(Cl)c2)cc1 | 20

molecular target: Acetylcholinesterase (Homo sapiens) (UniProt P22303); assay: Reactivation of sarin-inhibited human recombinant AChE using acetylthiocholine iodide as substrate assessed as time required for maximal percentage of reactivation by Ellman spectrophotometric method

Row | SMILES | TIME [h]
3 | NC(=O)c1cc[n+](CCCC[n+]2ccc(/C=N/O)c(Cl)c2)cc1 | 1.5
4 | NC(=O)c1cc[n+](CCCC[n+]2cc(Cl)c(/C=N/O)c(Cl)c2)cc1 | 0.5

molecular target: Acetylcholinesterase (Homo sapiens) (UniProt P22303); assay: Reactivation of VX-inhibited human recombinant AChE at 200 uM using acetylthiocholine iodide as substrate by Ellman spectrophotometric method relative to control

Row | SMILES | %max [%]
5 | NC(=O)c1cc[n+](CCCC[n+]2cc(Cl)c(/C=N/O)c(Cl)c2)cc1 | 60

molecular target: Acetylcholinesterase (Homo sapiens) (UniProt P22303); assay: Reactivation of VX-inhibited human recombinant AChE at 500 uM using acetylthiocholine iodide as substrate by Ellman spectrophotometric method relative to control

Row | SMILES | %max [%]
6 | NC(=O)c1cc[n+](CCCC[n+]2ccc(/C=N/O)c(Cl)c2)cc1 | 100

molecular target: Acetylcholinesterase (Homo sapiens) (UniProt P22303); assay: Reactivation of VX-inhibited human recombinant AChE using acetylthiocholine iodide as substrate assessed as time required for maximal percentage of reactivation at 200 uM by Ellman spectrophotometric method

Row | SMILES | TIME [h]
7 | NC(=O)c1cc[n+](CCCC[n+]2cc(Cl)c(/C=N/O)c(Cl)c2)cc1 | 0.333

molecular target: Acetylcholinesterase (Homo sapiens) (UniProt P22303); assay: Reactivation of cyclosarin-inhibited human recombinant AChE using acetylthiocholine iodide as substrate assessed as maximal first-order reactivation rate by Ellman spectrophotometric method

Row | SMILES | K [min⁻¹]
8 | NC(=O)c1cc[n+](CCCC[n+]2ccc(/C=N/O)c(Cl)c2)cc1 | 0.027
9 | NC(=O)c1cc[n+](CCCC[n+]2cc(Cl)c(/C=N/O)c(Cl)c2)cc1 | 0.101

molecular target: Cholinesterases; ACHE & BCHE (Homo sapiens) (UniProt P06276+P22303); assay: Selectivity ratio of Ki for human plasma BChE to Ki for recombinant human AChE

Row | SMILES | Ratio Ki
10 | NC(=O)c1cc[n+](CCCC[n+]2ccc(/C=N/O)c(Cl)c2)cc1 | 7.4
11 | NC(=O)c1cc[n+](CCCC[n+]2cc(Cl)c(/C=N/O)c(Cl)c2)cc1 | 11.7

molecular target: Acetylcholinesterase (Homo sapiens) (UniProt P22303); assay: Reactivation of VX-inhibited human recombinant AChE using acetylthiocholine iodide as substrate assessed as overall second-order reactivation rate by Ellman spectrophotometric method

Row | SMILES | K [M⁻¹ s⁻¹]
12 | NC(=O)c1cc[n+](CCCC[n+]2ccc(/C=N/O)c(Cl)c2)cc1 | 6.83
13 | NC(=O)c1cc[n+](CCCC[n+]2cc(Cl)c(/C=N/O)c(Cl)c2)cc1 | 71.8

molecular target: Acetylcholinesterase (Homo sapiens) (UniProt P22303); assay: Reactivation of cyclosarin-inhibited human recombinant AChE using acetylthiocholine iodide as substrate by Ellman spectrophotometric method relative to control

Row | SMILES | %max [%]
14 | NC(=O)c1cc[n+](CCCC[n+]2ccc(/C=N/O)c(Cl)c2)cc1 | 100
15 | NC(=O)c1cc[n+](CCCC[n+]2cc(Cl)c(/C=N/O)c(Cl)c2)cc1 | 80

molecular target: Acetylcholinesterase (Homo sapiens) (UniProt P22303); assay: Reactivation of sarin-inhibited human recombinant AChE using acetylthiocholine iodide as substrate by Ellman spectrophotometric method relative to control

Row | SMILES | %max [%]
16 | NC(=O)c1cc[n+](CCCC[n+]2ccc(/C=N/O)c(Cl)c2)cc1 | 80
17 | NC(=O)c1cc[n+](CCCC[n+]2cc(Cl)c(/C=N/O)c(Cl)c2)cc1 | 80

molecular target: Acetylcholinesterase (Homo sapiens) (UniProt P22303); assay: Reactivation of tabun-inhibited human recombinant AChE using acetylthiocholine iodide as substrate assessed as maximal first-order reactivation rate by Ellman spectrophotometric method

Row | SMILES | K [min⁻¹]
18 | NC(=O)c1cc[n+](CCCC[n+]2ccc(/C=N/O)c(Cl)c2)cc1 | 0.017

molecular target: Acetylcholinesterase (Homo sapiens) (UniProt P22303); assay: Reactivation of VX-inhibited human recombinant AChE using acetylthiocholine iodide as substrate assessed as time required for maximal percentage of reactivation at 500 uM by Ellman spectrophotometric method

Row | SMILES | TIME [h]
19 | NC(=O)c1cc[n+](CCCC[n+]2ccc(/C=N/O)c(Cl)c2)cc1 | 1.67

molecular target: Acetylcholinesterase (Homo sapiens) (UniProt P22303); assay: Reactivation of cyclosarin-inhibited human recombinant AChE using acetylthiocholine iodide as substrate assessed as time required for maximal percentage of reactivation by Ellman spectrophotometric method

Row | SMILES | TIME [h]
20 | NC(=O)c1cc[n+](CCCC[n+]2ccc(/C=N/O)c(Cl)c2)cc1 | 2.5
21 | NC(=O)c1cc[n+](CCCC[n+]2cc(Cl)c(/C=N/O)c(Cl)c2)cc1 | 0.667

molecular target: Acetylcholinesterase (Homo sapiens) (UniProt P22303); assay: Reactivation of tabun-inhibited human recombinant AChE using acetylthiocholine iodide as substrate assessed as overall second-order reactivation rate by Ellman spectrophotometric method

Row | SMILES | K [M⁻¹ s⁻¹]
22 | NC(=O)c1cc[n+](CCCC[n+]2ccc(/C=N/O)c(Cl)c2)cc1 | 7.83

molecular target: Acetylcholinesterase (Homo sapiens) (UniProt P22303); assay: Reactivation of cyclosarin-inhibited human recombinant AChE using acetylthiocholine iodide as substrate assessed as overall second-order reactivation rate by Ellman spectrophotometric method

Row | SMILES | K [M⁻¹ s⁻¹]
23 | NC(=O)c1cc[n+](CCCC[n+]2ccc(/C=N/O)c(Cl)c2)cc1 | 5.67
24 | NC(=O)c1cc[n+](CCCC[n+]2cc(Cl)c(/C=N/O)c(Cl)c2)cc1 | 35.3

molecular target: Acetylcholinesterase (Homo sapiens) (UniProt P22303); assay: Reactivation of sarin-inhibited human recombinant AChE using acetylthiocholine iodide as substrate assessed as maximal first-order reactivation rate by Ellman spectrophotometric method

Row | SMILES | K [min⁻¹]
25 | NC(=O)c1cc[n+](CCCC[n+]2ccc(/C=N/O)c(Cl)c2)cc1 | 0.38
26 | NC(=O)c1cc[n+](CCCC[n+]2cc(Cl)c(/C=N/O)c(Cl)c2)cc1 | 0.2

molecular target: Acetylcholinesterase (Homo sapiens) (UniProt P22303); assay: Reactivation of VX-inhibited human recombinant AChE using acetylthiocholine iodide as substrate assessed as dissociation constant of conjugated enzyme-oxime complex by Ellman spectrophotometric method

Row | SMILES | K [µM]
27 | NC(=O)c1cc[n+](CCCC[n+]2ccc(/C=N/O)c(Cl)c2)cc1 | 430
28 | NC(=O)c1cc[n+](CCCC[n+]2cc(Cl)c(/C=N/O)c(Cl)c2)cc1 | 40

molecular target: Acetylcholinesterase (Homo sapiens) (UniProt P22303); assay: Reactivation of sarin-inhibited human recombinant AChE using acetylthiocholine iodide as substrate assessed as dissociation constant of conjugated enzyme-oxime complex by Ellman spectrophotometric method

Row | SMILES | K [µM]
29 | NC(=O)c1cc[n+](CCCC[n+]2ccc(/C=N/O)c(Cl)c2)cc1 | 1150
30 | NC(=O)c1cc[n+](CCCC[n+]2cc(Cl)c(/C=N/O)c(Cl)c2)cc1 | 50

molecular target: Acetylcholinesterase (Homo sapiens) (UniProt P22303); assay: Reactivation of tabun-inhibited human recombinant AChE using acetylthiocholine iodide as substrate assessed as dissociation constant of conjugated enzyme-oxime complex by Ellman spectrophotometric method

Row | SMILES | K [µM]
31 | NC(=O)c1cc[n+](CCCC[n+]2ccc(/C=N/O)c(Cl)c2)cc1 | 40

molecular target: Acetylcholinesterase (Homo sapiens) (UniProt P22303); assay: Reactivation of tabun-inhibited human recombinant AChE using acetylthiocholine iodide as substrate assessed as time required for maximal percentage of reactivation by Ellman spectrophotometric method

Row | SMILES | TIME [h]
32 | NC(=O)c1cc[n+](CCCC[n+]2ccc(/C=N/O)c(Cl)c2)cc1 | 6.5
33 | NC(=O)c1cc[n+](CCCC[n+]2cc(Cl)c(/C=N/O)c(Cl)c2)cc1 | 24

molecular target: Acetylcholinesterase (Homo sapiens) (UniProt P22303); assay: Reactivation of sarin-inhibited human recombinant AChE using acetylthiocholine iodide as substrate assessed as overall second-order reactivation rate by Ellman spectrophotometric method

Row | SMILES | K [M⁻¹ s⁻¹]
34 | NC(=O)c1cc[n+](CCCC[n+]2ccc(/C=N/O)c(Cl)c2)cc1 | 5.5
35 | NC(=O)c1cc[n+](CCCC[n+]2cc(Cl)c(/C=N/O)c(Cl)c2)cc1 | 64.7

molecular target: Acetylcholinesterase (Homo sapiens) (UniProt P22303); assay: Reactivation of cyclosarin-inhibited human recombinant AChE using acetylthiocholine iodide as substrate assessed as dissociation constant of conjugated enzyme-oxime complex by Ellman spectrophotometric method

Row | SMILES | K [µM]
36 | NC(=O)c1cc[n+](CCCC[n+]2ccc(/C=N/O)c(Cl)c2)cc1 | 80
37 | NC(=O)c1cc[n+](CCCC[n+]2cc(Cl)c(/C=N/O)c(Cl)c2)cc1 | 50

molecular target: Acetylcholinesterase (Homo sapiens) (UniProt P22303); assay: Reactivation of VX-inhibited human recombinant AChE using acetylthiocholine iodide as substrate assessed as maximal first-order reactivation rate by Ellman spectrophotometric method

Row | SMILES | K [min⁻¹]
38 | NC(=O)c1cc[n+](CCCC[n+]2ccc(/C=N/O)c(Cl)c2)cc1 | 0.18
39 | NC(=O)c1cc[n+](CCCC[n+]2cc(Cl)c(/C=N/O)c(Cl)c2)cc1 | 0.18
